# Measured values reported in patent publication US20080195024A1, “Treating Disorders Associated with Inflammation” (priority 2005, published 2008).
# Target: chymotrypsin (Bos taurus, UniProt P00766)
# Details: 1 mM PMSF added before or after 6 hours digestion by chymotrypsin at 37° C.
structure (smiles),measurement,value
"O=S(=O)(F)Cc1ccccc1 [PMSF, phenylmethylsulfonyl fluoride]",protease activity of the digested homogenate,inhibited the protease activity
